Patent publication US20240316213A1, “ANTIBODY-PROTAMINE FUSIONS AS TARGETING COMPOUNDS OF A PROTAMINE-BASED NANOPARTICLE” (Universität Münster, priority 2021, published 2024)
Where two headings read alike, the source gives them in different places.

Columns and labels:
[1] = biological target: EGFR (epithelial growth factor receptor) on cells (UniProt P00533); experiment: cell-based or functional assay
[2] = biological target: EGFR (epithelial growth factor receptor) on cells (UniProt P00533); experiment: cell-based or functional assay; remark: listed apart in the source

internalisation of Alexa488-siRNA into RD cells (FACS) [1]: < 90 % of cells
internalisation of Alexa488-siRNA into RD cells (FACS) [2]: > 90 % of cells
Substance: cetuximab (anti-EGFR-mAB)-SMCC-protamine conjugate (antibody)
